{"sequences": {"note": "Sequences of proteins named here, by UniProt entry; tags and fusion partners are left off. Residues count along the entry.", "UniProt O60755, 1-299 limits assumed": "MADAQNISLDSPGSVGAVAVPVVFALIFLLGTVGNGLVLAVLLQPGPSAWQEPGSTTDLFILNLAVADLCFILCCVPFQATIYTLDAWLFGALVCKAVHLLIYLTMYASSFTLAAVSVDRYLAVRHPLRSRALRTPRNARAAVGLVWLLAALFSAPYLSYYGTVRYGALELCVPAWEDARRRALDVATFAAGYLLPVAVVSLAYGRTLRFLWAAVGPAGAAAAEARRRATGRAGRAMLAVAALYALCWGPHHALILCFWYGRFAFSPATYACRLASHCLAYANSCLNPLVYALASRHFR"}, "source": "PubChem BioAssay AID652245", "about": "(The Scripps Research Institute Molecular Screening Center, 2013)", "note": "This is a selection; strong and weak results do not stand in their true shares. Activity calls are given as the source filed them.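 Rule for the calls: active = inhibition above the primary screen's cutoff, the mean inhibition of all screened compounds plus 3 SD (cut at about 13% in these data); inactive = the rest.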"}
{"target": "Galanin receptor type 3 (Homo sapiens) (UniProt O60755)", "experiment": "GalR3 antagonist hit confirmation, cell-based, fluorescence, triplicate (AID 652245);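 note: 0% = forskolin plus galanin and 100% = forskolin alone with DMSO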", "conditions": "HEK293 GalR3 CNG cAMP biosensor, membrane potential fluorescence; at 3 µM; stronger effect = higher value; challenged with forskolin and galanin at EC90; galR3 fused to GalR1 carboxy tail"}
{"smiles": "O=[N+]([O-])c1cc([N+](=O)[O-])c(Nc2ccc(Cl)cc2)c([N+](=O)[O-])c1", "inhibition": "active: 77.1%"}
{"smiles": "CCN(CC)CCCOC(=O)C(O)(c1ccccc1)c1ccccc1", "inhibition": "inactive: 10.6%"}
